By IC50 is commonly meant the midpoint of a concentration-inhibition curve.

The chains behind the UniProt entries cited, without tags or fusion partners. Residues count along the entry.
UniProt P10827, 190-410 isoform 2 limits assumed: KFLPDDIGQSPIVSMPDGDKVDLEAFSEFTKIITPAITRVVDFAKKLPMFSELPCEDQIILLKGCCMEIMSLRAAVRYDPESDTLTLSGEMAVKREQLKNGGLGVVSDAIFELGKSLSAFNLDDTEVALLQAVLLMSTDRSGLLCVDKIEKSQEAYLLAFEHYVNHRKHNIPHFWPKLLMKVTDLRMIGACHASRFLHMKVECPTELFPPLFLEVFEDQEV
UniProt P10828, 244-461 limits assumed: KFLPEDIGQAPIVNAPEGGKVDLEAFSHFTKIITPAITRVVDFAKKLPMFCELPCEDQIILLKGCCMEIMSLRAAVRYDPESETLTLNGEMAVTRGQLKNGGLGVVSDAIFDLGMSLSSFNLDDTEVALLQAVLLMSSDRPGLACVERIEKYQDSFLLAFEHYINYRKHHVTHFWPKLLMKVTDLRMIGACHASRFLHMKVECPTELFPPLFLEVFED

One assay concerns the target recombinant human TRα (Homo sapiens, UniProt P10827).
A further assay has as its target recombinant human TRβ (Homo sapiens, UniProt P10828).

Consider `CCOC(=O)C(=O)Nc1ccc2c(ccn2Cc2ccc(O)c(C(C)C)c2)c1`, for which the results for the IC50 at recombinant human TRα and at recombinant human TRβ were 980 nM and 350 nM, respectively.
The matching figures for `Cc1ccc(NC(=O)CC(=O)O)c2c1N(Cc1ccc(O)c(C(C)C)c1)C(C)C2` (racemic): above 10000 nM and 610 nM.

Values taken from patent US20090176841A1, “NOVEL 6-5 SYSTEM BICYCLIC HE[…] ITS PHAR[…]” (Sanwa Kagaku Kenkyusho Co., Ltd., priority 2006, published 2009).
